From patent US20080260838A1 (priority 2003, published 2008) come the findings set out here.

Series [1] can be described thus: 5-day oronasal inhalation toxicity and toxicokinetics in monkeys (Example 14). Format: in vivo, cynomolgus monkey (Macaca fascicularis). Particulars: FDKP only, 2.1 mg/kg/day (Group 2). As for the experimental part: Oronasal administration involved the monkeys wearing a mask over their mouth and nose and breathing the test formulation for 30 min.
Fourteen days prior to the start of treatment, the animals were acclimated to the restraint and dosing procedures. At the start of treatment (Day 1), male animals were between 30 months and 56 months old and ranged in weight from 2.3 to 4.0 kg; females were between 31 months and 64 months and ranged in weight from 1.6 to 3.4 kg. Ten (5 male and 5 female) non-naive cynomolgus monkeys were assigned to 5 groups (2 animals per group) as depicted in tables 5 and 6 below. The non-naive monkeys are colony animals who have previously received the formulations to be tested. However, these formulations have short half lives and are not expected to be present or have any effect on the monkeys during the dosing experiments disclosed herein.
Whole blood samples (1.4 mL/blood sample) were obtained on Day 5 at the following time points: Pre-dose, 10, 30, 45, 60, 90, 120 minutes and 4 hours post-dose. Blood was collected via venipuncture from the femoral vein. […] DPP-IV inhibitor (Millipore—Billerica, Mass.) was added (10 μL/mL of blood) to the tubes approximately 5-10 seconds after blood collection (yielding a concentration of DPP-IV of 100 μM). Tubes were inverted several times and immediately placed onto wet ice. […]

Series [2] in a line: 28-day inhalation toxicity and toxicokinetics in monkeys (Example 16). To be noted: for % Change in Mean Value ALT (U/L) / % Change in Mean Value AST (U/L) / % Change in Mean Value LDH (U/L): 3.67 mg/kg/day. The series is classed as in vivo, cynomolgus monkeys. Here is the method:
To assess the reversibility, persistence or delayed occurrence of any effects, there was a 4-week recovery period.
Forty-two cynomolgus monkeys were divided into 2 groups: main study (n=3/sex/group) and recovery (n=2/sex/group) in groups 1, 2, and 5. […] As is typically, in monkey studies only the high dose and controls were evaluated at recovery.
Animals were observed twice daily for mortality and morbidity and at least once daily, 30 minutes post-dose, for abnormalities and signs of toxicity. Body weight data was collected weekly and qualitative food consumption was assessed daily. Blood was collected for toxicokinetics on Days 1, 28, and 56. Three animals/sex/group were anesthetized, weighed, exsanguinated, and necropsied on Day 29. The remaining animals in Groups 1, 2 and 5 (n=2/sex/group) were anesthetized, weighed, exsanguinated, and necropsied on Day 57. At necropsy, selected organs were weighed and selected tissues were collected and preserved. All tissues from each animal were examined microscopically.

Series [3] is described as follows: Effect of agitation and freeze-thaw cycles on GLP-1 (near-UV CD, far-UV CD, fluorescence). Format: physicochemical. Particulars: pH 4.0. Here is the method:
The samples were agitated for 30 and 90 min at room temperature and the fluorescence emission spectra were collected after tryptophan excitation at 280 nm. […] Fluorescence emission spectra were collected after tryptophan excitation at 280 nm.

For series [4] the following is noted: 1 mg/mL, pH 10.5, 5 days at 40° C.

Regarding “3,6-di(fumaryl-4 aminobutyl)-2,5-diketopiperazine [FDKP]”, the “AUC∞ and Cmax of FDKP versus animals receiving GLP-1/FDKP at 2.13 mg/kg/day” value in series [1] is given as “of the same order of magnitude”. Moreover, the toxicity result in series [2] (FDKP up to 3.67 mg/kg/day, 28 days, up to 30 minutes a day) was “not associated with any toxicity”. Further, in series [2] (females), the “% Change in Mean Value ALT (U/L)” value is reported as −13%, the “% Change in Mean Value AST (U/L)” value is reported as −34% and the “% Change in Mean Value LDH (U/L)” value is −53%. In addition, in series [2] (males), the “% Change in Mean Value ALT (U/L)” value amounted to 14%, the “% Change in Mean Value AST (U/L)” value was 60% and the “% Change in Mean Value LDH (U/L)” value was −6%.

In the case of GLP-1, in series [3] (10 cycles, 1.6, 5.1 and 8.4 mg/mL), the “effect of freeze-thaw cycles on tertiary structure” value is on record as “tertiary structure of the peptide does not notably change”. In addition, the “effect of freeze-thaw cycles on secondary structure” value in series [3] (11 cycles, 10 mg/mL) was “secondary structure of the peptide does not change significantly”. For the same substance, the deamidation entry in series [4] was “deamidation of GLP-1 was not observed”. Also, for the setting “1.0 mg/mL GLP-1, 1M NaCl, pH 4, 20° C., reversible on dilution with water”, the “precipitation at high ionic strength” value is listed as “much of the peptide (at 1.0 mg/mL) precipitates out of solution”. Moreover, under “peptide concentration 10 mg/ml, 20° C.”, the “pH range of reversible precipitation” value is listed as 6.3-7.6.
